From patent publication US8691817B2, “Sulfonic amide and sulfoximine-substituted diaryl-dihydropyrimidinones and usage thereof” (Bayer Intellectual Property GmbH, priority 2009, dated 2014)

Test system: rat hepatocytes
Experiment: Hepatocyte assay to determine the metabolic stability
Assay type: in vitro ADME
Conditions: after incubation with rat hepatocytes
Protocol: The metabolic stability of test compounds in the presence of hepatocytes is determined by incubating the compounds with low concentrations (preferably below or around 1 μM) and with low cell counts (preferably 1*10^6 cells/ml) in order to ensure as far as possible linear kinetic conditions in the experiment. Seven samples of the incubation solution are taken in a fixed time pattern for the […] analysis in order to determine the half-life (i.e. the degradation) of the compound in each case. Various clearance parameters (CL) and Fmax values are calculated from this half-life (see below).
The Cl and Fmax values represent a measure of the phase 1 and phase 2 metabolism of the compounds in the hepatocytes. In order to minimize the influence of the organic solvent on the enzymes in the incubation mixtures, this concentration is generally limited to 1% (acetonitrile) or 0.1% (DMSO).
A cell count for hepatocytes in the liver of 1.1*10^8 cells/g of liver is used for calculation for all species and breeds. CL parameters calculated on the basis of half-lives extending substantially beyond the incubation time (normally 90 minutes) can be regarded only as rough guidelines. […]

Fmax, maximum possible bioavailability after oral administration (well-stirred): 99%
Compound: CC1=C(C#N)[C@@H](c2ccc(C#N)cc2S(C)(=N)=O)N(C)C(=O)N1c1cccc(C(F)(F)F)c1 (mixture of isomers) [Example 38, (SS)-(4S)-4-[4-Cyano-2-(S-methylsulfonimidoyl)phenyl]-3,6-dimethyl-2-oxo-1-[3-(trifluoromethyl)phenyl]-1,2,3,4-tetrahydropyrimidine-5-carbonitrile or (RS)-(4S)-4-[4-cyano-2-(S-methylsulfonimidoyl)phenyl]-3,6-dimethyl-2-oxo-1-[3-(trifluoromethyl)phenyl]-1,2,3,4-tetrahydropyrimidine-5-carbonitrile]
